The target in this test is ROCK2 (Homo sapiens (Human), UniProt O75116). Briefly: biochemical.

Sequences of proteins named here, by UniProt entry; tags and fusion partners are left off.
UniProt O75116, whole entry, species assumed: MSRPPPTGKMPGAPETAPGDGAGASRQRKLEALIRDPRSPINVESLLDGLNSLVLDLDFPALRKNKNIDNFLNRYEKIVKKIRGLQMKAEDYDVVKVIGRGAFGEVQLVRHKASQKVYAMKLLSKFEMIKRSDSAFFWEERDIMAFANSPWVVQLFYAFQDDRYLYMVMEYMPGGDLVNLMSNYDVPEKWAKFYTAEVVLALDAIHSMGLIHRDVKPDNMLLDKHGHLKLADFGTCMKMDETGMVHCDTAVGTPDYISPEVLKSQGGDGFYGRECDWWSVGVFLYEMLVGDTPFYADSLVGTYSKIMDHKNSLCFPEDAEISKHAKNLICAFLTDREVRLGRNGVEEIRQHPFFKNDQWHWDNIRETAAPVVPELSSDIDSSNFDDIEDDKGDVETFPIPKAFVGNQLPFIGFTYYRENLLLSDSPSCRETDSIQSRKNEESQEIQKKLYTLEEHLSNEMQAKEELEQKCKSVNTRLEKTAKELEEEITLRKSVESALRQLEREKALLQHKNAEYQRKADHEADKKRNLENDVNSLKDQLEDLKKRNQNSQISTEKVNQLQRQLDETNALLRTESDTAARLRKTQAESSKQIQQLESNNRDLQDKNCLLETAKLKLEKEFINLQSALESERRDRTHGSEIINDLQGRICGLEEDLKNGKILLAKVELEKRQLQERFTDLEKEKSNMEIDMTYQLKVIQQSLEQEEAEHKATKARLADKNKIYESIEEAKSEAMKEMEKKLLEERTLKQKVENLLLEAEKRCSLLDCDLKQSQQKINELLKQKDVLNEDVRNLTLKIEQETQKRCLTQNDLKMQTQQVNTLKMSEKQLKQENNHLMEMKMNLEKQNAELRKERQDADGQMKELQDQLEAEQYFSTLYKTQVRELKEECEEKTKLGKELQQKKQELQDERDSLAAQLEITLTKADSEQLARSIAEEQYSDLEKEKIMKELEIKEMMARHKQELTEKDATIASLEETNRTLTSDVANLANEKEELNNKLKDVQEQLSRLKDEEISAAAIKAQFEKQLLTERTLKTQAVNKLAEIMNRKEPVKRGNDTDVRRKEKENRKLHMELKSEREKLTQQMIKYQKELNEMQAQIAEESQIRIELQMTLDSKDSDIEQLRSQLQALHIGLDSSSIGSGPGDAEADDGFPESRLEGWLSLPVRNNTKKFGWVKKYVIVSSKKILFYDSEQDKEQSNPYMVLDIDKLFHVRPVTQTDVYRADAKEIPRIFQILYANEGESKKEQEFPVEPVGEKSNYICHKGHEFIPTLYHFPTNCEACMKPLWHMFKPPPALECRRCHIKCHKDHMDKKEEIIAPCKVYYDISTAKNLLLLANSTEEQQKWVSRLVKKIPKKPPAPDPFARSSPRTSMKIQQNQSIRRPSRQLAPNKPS

Here are results for one molecule from US10112929B2, “Lactams as inhibitors of rock” (BRISTOL-MYERS SQUIBB COMPANY, priority 2015, dated 2018).
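Further: rho kinase enzyme reaction halted with EDTA, phospho- and non-phospho peptide separated for read-out, kinase activity inhibition derived across a dose-response series, DMSO under 2%.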

In general, IC50 refers to the concentration that gives 50% inhibition. Consider `COc1ccc(F)cc1NC1CCN(c2ccc(-c3cn[nH]c3)c(OC)c2)C1=O` (single isomer, unassigned) [Example 148, 3-((5-fluoro-2-methoxyphenyl)amino)-1-(3-methoxy-4-(1H-pyrazol-4-yl)phenyl) pyrrolidin-2-one], for which the IC50 lay within 10 to 100 nM.
